From patent publication WO2020158863A1, “Combined drug of anthracycline compound-containing micelle preparation with immunostimulant” (priority 2019, dated 2020)
Where a name gives a salt, the structure may show the parent alone.

Tested on: GL261-luc
Assay: In vivo antitumor effect assay by orthotopic brain transplantation, GL261-luc (Experimental Example 4)
Set-up: species or system mouse

COc1cccc2c1C(=O)c1c(O)c3c(c(O)c1C2=O)C[C@@](O)(C(=O)CO)C[C@@H]3O[C@H]1C[C@H](N)[C@@H](O)[C@H](C)O1 [Epi, Epirubicin hydrochloride]
antitumor effect (luminescence intensity) (tail vein, Day 6, 10, 14, Fig. 4): no antitumor effect was confirmed | survival (death of mice) (transplantation = Day 0, Fig. 5): all the mice died between Day30 and Day40
